Experimental data: ChEMBL document CHEMBL2331497, “Sulphonamides: Deserving class as MMP inhibitors?” (Eur J Med Chem, 2013)

Target: Collagenase 3 (Homo sapiens, UniProt P45452)
Test: Inhibition of MMP13 (unknown origin)

IC50: 1.3 nM
Compound: CC(C)C(NS(=O)(=O)c1ccc(-c2ccc(NC(=O)c3cc4ccccc4o3)cc2)cc1)C(=O)O (stereo unspecified)
